# Experimental data taken from paper PMC10247778, “PXL1 and SERKs act as receptor–coreceptor complexes for the CLE19 peptide to regulate pollen development” (Nature Communications, 2023).
# Chains of the proteins cited; added tags and fusions are not shown. Residues count along the entry.
# UniProt Q9FRS6, 24-639 limits assumed: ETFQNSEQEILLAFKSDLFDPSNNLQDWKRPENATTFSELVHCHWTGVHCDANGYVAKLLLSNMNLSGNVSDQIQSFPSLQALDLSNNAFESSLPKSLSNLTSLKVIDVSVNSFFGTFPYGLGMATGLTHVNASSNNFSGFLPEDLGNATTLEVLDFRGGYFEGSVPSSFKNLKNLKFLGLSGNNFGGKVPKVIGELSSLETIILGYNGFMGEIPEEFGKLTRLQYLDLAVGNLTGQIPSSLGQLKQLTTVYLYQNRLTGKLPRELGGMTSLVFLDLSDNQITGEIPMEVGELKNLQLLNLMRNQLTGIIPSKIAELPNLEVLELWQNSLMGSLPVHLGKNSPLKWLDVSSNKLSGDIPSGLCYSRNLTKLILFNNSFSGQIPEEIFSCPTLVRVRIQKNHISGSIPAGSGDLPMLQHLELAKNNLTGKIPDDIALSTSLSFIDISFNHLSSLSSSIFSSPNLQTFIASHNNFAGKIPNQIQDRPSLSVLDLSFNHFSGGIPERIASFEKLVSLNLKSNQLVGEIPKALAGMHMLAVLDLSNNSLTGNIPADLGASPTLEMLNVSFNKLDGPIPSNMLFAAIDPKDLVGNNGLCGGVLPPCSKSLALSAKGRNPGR
# Columns and labels:
# [1] = system: PXL1 (PXL1^LRR); experiment: Gel filtration-MALDI-TOF identification of peptides copurified with PXL1 LRR; type: binding, Arabidopsis; conditions: PXL1^LRR incubated with synthesized peptide mixture (0.1 mg each), 10 mM Bis-Tris pH 6.0, 100 mM NaCl, on ice 1 h, Superdex 200
# [2] = biological target: T1, PXL1^LRR (Arabidopsis thaliana, UniProt Q9FRS6); experiment: ITC, CLE peptide with PXL1^LRR; type: binding; conditions: 2 µM (literature) vs CLE19 0.35 µM
# Experimental: Both fusion proteins were expressed in High Five cells at 22 °C and purified using an Ni-NTA (Novagen) column. After elution and concentration, the proteins were further purified by size-exclusion chromatography (HiLoad 200, GE Healthcare) in buffer containing 10 mM Bis-Tris, pH 6.0, and 100 mM NaCl. […] The ITC data was analyzed using MicroCal Origin 7.0.
# [3] = biological target: T1, PXL1^LRR; conditions: read-out: binding affinity, CLE41/TDIF-PXL1; ITC; ref [16],[32] (Zhang et al., 2016); cited from earlier work
# Experimental: Among these three RLK proteins, both PXL1 and PXL2 directly interact with CLE19, with dissociation constants (Kd) of ~346 nM and ~714 nM, respectively (Figs. 1b and 5i), whereas PXY has only a weak interaction with CLE19 (Fig. 5j). […] P values are caculated by chi-square, and n indicates anther count used for each genotype. (g) Expression of PXL1, PXL2 and PXY genes in inflorescenes, anther ... || page 15: as Fig. 5i-j of the revised manuscript, (c) was shown as was shown as Fig. 5k, and (d-e) were shown as Fig. S8a-b in the revised manuscript. Reference: 1. […] Cell Res. 26, 543–555 (2016). 2. For many of the experiments, the number of replicates performed is not clear. The number of needs to be explicitly stated in the manuscript, including in figure legends. Response: Thanks for pointing out this. The number of replicates is three in all the ... || (+ 1 further places)
# [4] = biological target: T1, PXL1^LRR; conditions: in vitro; ref [16],[32]; cited from earlier work
# Experimental: (§1) Among these three RLK proteins, both PXL1 and PXL2 directly interact with CLE19, with dissociation constants (Kd) of ~346 nM and ~714 nM, respectively (Figs. 1b and 5i), whereas PXY has only a weak interaction with CLE19 (Fig. 5j). In addition, both PXL1 and PXL2, but not PXY, could form receptor–coreceptor complexes with SER ...
# [5] = system: PXL2^LRR; conditions: in vitro; ref [16],[32]; cited from earlier work
# Experimental: as §1
# [6] = system: PXY^LRR; conditions: in vitro; ref [16],[32]; cited from earlier work
# Experimental: as §1
# [7] = system: SERK2-PXY interaction; conditions: ref Zhang et al., 2016; cited from earlier work
# Excerpt: It is possible that PXL1/PXL2/PXY form homod ...
# [8] = system: LRR domain of PXY; conditions: gel-filtration MS assay, ref Song et al., 2016, Qian et al., 2018, Zhang et al.; cited from earlier work
# Excerpt: P values are caculated by chi-square, and n indicates anther count used for each genotype. (g) Expression of PXL1, PXL2 and PXY genes in inflorescenes, anther ...
structure (smiles),measurement,setting,value
CCC(C)C(NC(=O)C1CCCN1C(=O)C(CC(N)=O)NC(=O)C1CC(O)CN1C(=O)CNC(=O)C(CO)NC(=O)C1CC(O)CN1C(=O)C(NC(=O)C(CCC(=O)O)NC(=O)C(N)Cc1c[nH]cn1)C(C)C)C(=O)NC(CO)C(=O)NC(CC(N)=O)C(=O)O (centres unmarked),CLE peptide copurified with PXL1,[1],CLE19 was the only CLE peptide that co-purified with PXL1
same,affinity for PXL1 relative to CLE19 (fold lower),[2],6 fold
same,Kd,[3],2000 nM
same,direct binding to PXL1^LRR (immunoprecipitation),[4],could directly bind
same,direct binding to PXL2^LRR (immunoprecipitation),[5],could directly bind
same,direct binding to PXY^LRR (immunoprecipitation),[6],could directly bind
same,SERK2-PXY interaction,[7],can induce SERK2-PXY interaction
same,binding to LRR domain of PXY,[8],able to bind
